Assay [1] concerns the target T1, full-length B-Catenin (Uniprot ID P35222) (Homo sapiens, UniProt P35222).
T1 construct: 10 nM full-length B-Catenin (Uniprot ID P35222)
In words: biochemical. It counts as binding. To be noted: beta-Catenin FP IC50 (nM), competition fluorescence polarization. A general note: In fluorescence polarisation assays a small probe gives low polarisation when free and higher when bound to something large.

Protein sequences, listed by entry. Tags and fused reporters are not part of them.
UniProt P35222, whole entry: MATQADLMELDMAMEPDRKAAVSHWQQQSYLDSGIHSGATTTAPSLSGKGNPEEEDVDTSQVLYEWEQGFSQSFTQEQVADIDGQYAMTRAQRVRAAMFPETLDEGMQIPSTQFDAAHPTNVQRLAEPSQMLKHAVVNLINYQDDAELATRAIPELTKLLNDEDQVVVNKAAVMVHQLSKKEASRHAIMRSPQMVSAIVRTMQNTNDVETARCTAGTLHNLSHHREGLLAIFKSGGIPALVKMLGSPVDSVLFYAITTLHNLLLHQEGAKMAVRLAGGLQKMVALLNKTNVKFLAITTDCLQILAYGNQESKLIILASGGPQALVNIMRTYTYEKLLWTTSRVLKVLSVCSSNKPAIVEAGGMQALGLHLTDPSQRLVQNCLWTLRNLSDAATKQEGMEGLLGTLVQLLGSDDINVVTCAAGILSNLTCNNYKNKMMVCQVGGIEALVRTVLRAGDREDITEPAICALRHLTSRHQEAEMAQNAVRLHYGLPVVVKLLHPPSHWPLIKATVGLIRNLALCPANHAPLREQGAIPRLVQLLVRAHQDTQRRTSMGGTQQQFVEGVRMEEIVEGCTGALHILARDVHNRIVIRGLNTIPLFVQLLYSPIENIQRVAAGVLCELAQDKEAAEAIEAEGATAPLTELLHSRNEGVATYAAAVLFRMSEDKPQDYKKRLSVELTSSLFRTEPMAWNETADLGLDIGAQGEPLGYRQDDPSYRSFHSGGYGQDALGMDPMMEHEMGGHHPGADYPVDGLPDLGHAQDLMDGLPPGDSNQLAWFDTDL

In assay [2] the target is beta-catenin/TCF4 interaction (Homo sapiens, UniProt P35222). In words: cell-based. Also noted: host or cells: HEK293. To be noted: NanoBRET Abs IC50 (uM), absolute IC50.

Molecules are shown by their SMILES.

One may read the IC50 as the midpoint of a concentration-inhibition curve.

As to `CC(=O)N1CCC[C@]12CC=CCCCC1(CCCC=CCCCOC(=O)N3CC[C@@]4(C3)NC(=O)[C@H](CCCCNC(=O)CC[C@@H](C(=O)N[C@@H](C)C(N)=O)NC(=O)[C@H](Cc3csc5ccccc35)NC(=O)[C@H](Cc3ccsc3)NC4=O)NC(=O)[C@H](Cc3ccccc3)NC(=O)[C@H](C)NC(=O)[C@H](CO)NC(=O)[C@H](Cc3cccc(C(=O)O)c3)NC(=O)[C@H](CC(=O)O)NC1=O)NC(=O)[C@H](CC(C)(C)C)NC(=O)[C@H](CC(=O)O)NC2=O` (single isomer, unassigned) [I-389, Ac-PL3-Asp-Npg-B5-Asp-3COOHF-Ser-Ala-Phe-Lys*3-PyrS2-3Thi-BztA-GlnR*3-Ala-NH2], the IC50 in assay [1] was less than 50 nM; in assay [2], 1.5 to 3 µM.

Consider `CC(=O)N1CCC[C@]12CC=CCCCC1(CCCC=CCCCOC(=O)N3CC[C@@]4(C3)NC(=O)[C@H](CCCCNC(=O)CC[C@@H](C(=O)N[C@@H](C)C(N)=O)NC(=O)[C@H](Cc3csc5ccccc35)NC(=O)[C@H](Cc3ccsc3)NC4=O)NC(=O)[C@H](Cc3ccccc3)NC(=O)[C@H](C)NC(=O)[C@H](CCC(N)=O)NC(=O)[C@H](Cc3cccc(C(=O)O)c3)NC(=O)[C@H](CC(=O)O)NC1=O)NC(=O)[C@H](CC(C)(C)C)NC(=O)[C@H](CC(=O)O)NC2=O` (single isomer, unassigned) [I-391, Ac-PL3-Asp-Npg-B5-Asp-3COOHF-Gln-Ala-Phe-Lys*3-PyrS2-3Thi-BztA-GlnR*3-Ala-NH2], for which the IC50 in assay [1] was less than 50 nM; in assay [2] it was 3 to 10 µM.

Regarding `CC(=O)N1CCC[C@]12CC=CCCCC1(CCCC=CCCCOC(=O)N3CC[C@@]4(C3)NC(=O)[C@H](CCCCNC(=O)CC[C@@H](C(=O)N[C@@H](C)C(N)=O)NC(=O)[C@H](Cc3csc5ccccc35)NC(=O)[C@H](Cc3ccsc3)NC4=O)NC(=O)[C@H](Cc3ccccc3)NC(=O)[C@H](C)NC(=O)[C@H](CC(N)=O)NC(=O)[C@H](Cc3cccc(C(=O)O)c3)NC(=O)[C@H](CC(=O)O)NC1=O)NC(=O)[C@H](CC(C)(C)C)NC(=O)[C@H](CC(=O)O)NC2=O` (single isomer, unassigned) [I-393, Ac-PL3-Asp-Npg-B5-Asp-3COOHF-Asn-Ala-Phe-Lys*3-PyrS2-3Thi-BztA-GlnR*3-Ala-NH2], the IC50 in assay [1] is less than 50 nM; in assay [2] it was 3 to 10 µM.

Turning to `CC(=O)N1CCC[C@]12CC=CCCCC1(CCCC=CCCCOC(=O)N3CC[C@@]4(C3)NC(=O)[C@H](CCCCNC(=O)CC[C@@H](C(=O)N[C@H](C(=O)N[C@@H](C)C(N)=O)C(C)C)NC(=O)[C@H](Cc3csc5ccccc35)NC(=O)[C@H](Cc3ccsc3)NC4=O)NC(=O)[C@H](Cc3ccccc3)NC(=O)[C@H](C)NC(=O)C(C)(C)NC(=O)[C@H](Cc3cccc(C(=O)O)c3)NC(=O)[C@H](CC(=O)O)NC1=O)NC(=O)[C@H](CC(C)(C)C)NC(=O)[C@H](CC(=O)O)NC2=O` (single isomer, unassigned) [I-402, Ac-PL3-Asp-Npg-B5-Asp-3COOHF-Aib-Ala-Phe-Lys*3-PyrS2-3Thi-BztA-GlnR*3-Val-Ala-NH2], the IC50 was less than 50 nM in assay [1] and 1.5 to 3 µM in assay [2].

`CC(=O)N1CCC[C@]12CC=CCCCC1(CCCC=CCCCOC(=O)N3CC[C@@]4(C3)NC(=O)[C@H](CCCCNC(=O)CC[C@@H](C(=O)NC(C)(C)C(=O)N[C@@H](C)C(N)=O)NC(=O)[C@H](Cc3csc5ccccc35)NC(=O)[C@H](Cc3ccsc3)NC4=O)NC(=O)[C@H](Cc3ccccc3)NC(=O)[C@H](C)NC(=O)C(C)(C)NC(=O)[C@H](Cc3cccc(C(=O)O)c3)NC(=O)[C@H](CC(=O)O)NC1=O)NC(=O)[C@H](CC(C)(C)C)NC(=O)[C@H](CC(=O)O)NC2=O` (single isomer, unassigned) [I-404, Ac-PL3-Asp-Npg-B5-Asp-3COOHF-Aib-Ala-Phe-Lys*3-PyrS2-3Thi-BztA-GlnR*3-Aib-Ala-NH2]: the results for the IC50 in assay [1] and in assay [2] were less than 50 nM and less than 1.5 µM, respectively.

On to `CC(=O)N1CCC[C@]12CC=CCCCC1(CCCC=CCCCOC(=O)N3CC[C@@]4(C3)NC(=O)[C@H](CCCCNC(=O)CC[C@@H](C(=O)N[C@H](C(=O)NC(C)(C)C(N)=O)C(C)C)NC(=O)[C@H](Cc3csc5ccccc35)NC(=O)[C@H](Cc3ccsc3)NC4=O)NC(=O)[C@H](Cc3ccccc3)NC(=O)[C@H](C)NC(=O)C(C)(C)NC(=O)[C@H](Cc3cccc(C(=O)O)c3)NC(=O)[C@H](CC(=O)O)NC1=O)NC(=O)[C@H](CC(C)(C)C)NC(=O)[C@H](CC(=O)O)NC2=O` (single isomer, unassigned) [I-407, Ac-PL3-Asp-Npg-B5-Asp-3COOHF-Aib-Ala-Phe-Lys*3-PyrS2-3Thi-BztA-GlnR*3-Val-Aib-NH2], for which the IC50 in assay [1] was less than 50 nM; in assay [2] it was 1.5 to 3 µM.

On to `CC(=O)N1CCC[C@]12CC=CCCCC1(CCCC=CCCCOC(=O)N3CC[C@@]4(C3)NC(=O)[C@H](CCCCNC(=O)CC[C@@H](C(=O)NC(C)(C)C(=O)NC(C)(C)C(N)=O)NC(=O)[C@H](Cc3csc5ccccc35)NC(=O)[C@H](Cc3ccsc3)NC4=O)NC(=O)[C@H](Cc3ccccc3)NC(=O)[C@H](C)NC(=O)C(C)(C)NC(=O)[C@H](Cc3cccc(C(=O)O)c3)NC(=O)[C@H](CC(=O)O)NC1=O)NC(=O)[C@H](CC(C)(C)C)NC(=O)[C@H](CC(=O)O)NC2=O` (single isomer, unassigned) [I-409, Ac-PL3-Asp-Npg-B5-Asp-3COOHF-Aib-Ala-Phe-Lys*3-PyrS2-3Thi-BztA-GlnR*3-Aib-Aib-NH2], for which the IC50 in assay [1] was less than 50 nM; in assay [2] it was less than 1.5 µM.

Consider `CC(=O)N1CCC[C@]12CC=CCCCC1(CCCC=CCCCOC(=O)N3CC[C@@]4(C3)NC(=O)[C@H](CCCCNC(=O)CC[C@@H](C(=O)N[C@H](C(=O)NC(C)(C)C(N)=O)[C@@H](C)O)NC(=O)[C@H](Cc3csc5ccccc35)NC(=O)[C@H](Cc3ccsc3)NC4=O)NC(=O)[C@H](Cc3ccccc3)NC(=O)[C@H](C)NC(=O)C(C)(C)NC(=O)[C@H](Cc3cccc(C(=O)O)c3)NC(=O)[C@H](CC(=O)O)NC1=O)NC(=O)[C@H](CC(C)(C)C)NC(=O)[C@H](CC(=O)O)NC2=O` (single isomer, unassigned) [I-411, Ac-PL3-Asp-Npg-B5-Asp-3COOHF-Aib-Ala-Phe-Lys*3-PyrS2-3Thi-BztA-GlnR*3-Thr-Aib-NH2], for which the IC50 in assay [1] was less than 50 nM; in assay [2] it was 1.5 to 3 µM.

In the case of `C[C@H](NC(=O)[C@@H]1CCC(=O)NCCCC[C@@H]2NC(=O)[C@H](Cc3ccccc3)NC(=O)[C@H](C)NC(=O)C(C)(C)NC(=O)[C@H](Cc3cccc(C(=O)O)c3)NC(=O)[C@H](CC(=O)O)NC(=O)[C@](C)(NC(=O)[C@@H]3CC=CCCC(=O)N4CCC[C@@]4(C)C(=O)N[C@@H](CC(=O)O)C(=O)N3)CCCC=CCCCOC(=O)N3CC[C@@](C3)(NC2=O)C(=O)N[C@@H](Cc2ccsc2)C(=O)N[C@@H](Cc2csc3ccccc23)C(=O)N1)C(N)=O` (single isomer, unassigned) [I-427, 4penteny1-MePro-Asp-AllylGly-R5-Asp-3COOHF-Aib-Ala-Phe-Lys*3-PyrS2-3Thi-BztA-GlnR*3-Ala-NH2], the values for the IC50 in assay [1] and in assay [2] were less than 50 nM and more than 10 µM, respectively.

With `C[C@H](NC(=O)[C@@H]1CCC(=O)NCCCC[C@@H]2NC(=O)[C@H](Cc3ccccc3)NC(=O)[C@H](C)NC(=O)C(C)(C)NC(=O)[C@H](Cc3cccc(C(=O)O)c3)NC(=O)[C@H](CC(=O)O)NC(=O)[C@](C)(NC(=O)[C@@H]3CC=CCCC(=O)N4CCC[C@@]4(C)C(=O)N[C@@H](CC(=O)O)C(=O)N3)CCCCCCCCOC(=O)N3CC[C@@](C3)(NC2=O)C(=O)N[C@@H](Cc2ccsc2)C(=O)N[C@@H](Cc2csc3ccccc23)C(=O)N1)C(N)=O` (single isomer, unassigned) [I-428, 4pentenyl-MePro-Asp-AllylGly-R5-Asp-3COOHF-Aib-Ala-Phe-Lys*3-PyrS2-3Thi-BztA-GlnR*3-Ala-NH2], the IC50 is less than 50 nM in assay [1] and more than 10 µM in assay [2].

In the case of `C[C@H](NC(=O)[C@@H]1CCC(=O)NCCCC[C@@H]2NC(=O)[C@H](Cc3ccccc3)NC(=O)[C@H](C)NC(=O)C(C)(C)NC(=O)[C@H](Cc3cccc(C(=O)O)c3)NC(=O)[C@H](CC(=O)O)NC(=O)[C@](C)(NC(=O)[C@@H]3CC=CCCCC(=O)N4CCC[C@@]4(C)C(=O)N[C@@H](CC(=O)O)C(=O)N3)CCCCCCCCOC(=O)N3CC[C@@](C3)(NC2=O)C(=O)N[C@@H](Cc2ccsc2)C(=O)N[C@@H](Cc2csc3ccccc23)C(=O)N1)C(N)=O` (single isomer, unassigned) [I-431, 5hexenyl-MePro-Asp-AllylGly-R5-Asp-3COOHF-Aib-Ala-Phe-Lys*3-PyrS2-3Thi-BztA-GlnR*3-Ala-NH2], the IC50 was less than 50 nM in assay [1] and more than 10 µM in assay [2].

As to `CC(=O)N1CCC[C@]12CC=CCCCC1(CCCC=CCCCOC(=O)N3CC[C@@]4(C3)NC(=O)[C@H](CCCCNC(=O)CC[C@@H](C(=O)N[C@@H](C)C(N)=O)NC(=O)[C@H](Cc3csc5ccccc35)NC(=O)[C@H](Cc3ccsc3)NC4=O)NC(=O)[C@H](Cc3ccccc3)NC(=O)[C@H](C)NC(=O)[C@@](C)(CO)NC(=O)[C@H](Cc3cccc(C(=O)O)c3)NC(=O)[C@H](CC(=O)O)NC1=O)NC(=O)[C@H](CC(C)(C)C)NC(=O)[C@H](CC(=O)O)NC2=O` (single isomer, unassigned) [I-436, Ac-PL3-Asp-Npg-B5-Asp-3COOHF-DaMeS-Ala-Phe-Lys*3-PyrS2-3Thi-BztA-GlnR*3-Ala-NH2], the IC50 in assay [1] is less than 50 nM; in assay [2], 3 to 10 µM.

For `CC(=O)N1CCC[C@]12CC=CCCCC1(CCCC=CCCCOC(=O)N3CC[C@@]4(C3)NC(=O)[C@H](CCCCNC(=O)CC[C@@H](C(=O)N[C@@H](C)C(N)=O)NC(=O)[C@H](Cc3csc5ccccc35)NC(=O)[C@H](Cc3ccsc3)NC4=O)NC(=O)[C@H](Cc3ccccc3)NC(=O)C(C)(C)NC(=O)[C@H](C)NC(=O)[C@H](Cc3cccc(C(=O)O)c3)NC(=O)[C@H](CC(=O)O)NC1=O)NC(=O)[C@H](CC(C)(C)C)NC(=O)[C@H](CC(=O)O)NC2=O` (single isomer, unassigned) [I-441, Ac-PL3-Asp-Npg-B5-Asp-3COOHF-Ala-Aib-Phe-Lys*3-PyrS2-3Thi-BztA-GlnR*3-Ala-NH2], the IC50 in assay [1] was less than 50 nM; in assay [2], more than 10 µM.

Source of the values: patent publication US20240360179A1, “STAPLED PEPTIDES AND METHODS THEREOF” (FOG PHARMACEUTICALS, INC., priority 2021, published 2024).
